Experimental findings from patent publication US20190284149A1, “ARYL HYDROCARBON RECEPTOR MODULATOR” (ARIAGEN, INC., priority 2014, published 2019) are described below.

SMILES strings stand for the structures.

This test has as its target T1, AhR receptor (Homo sapiens, UniProt P35869).
T1 construct: expression of native (Human Hepatoma Huh-7) AhR receptor reporter gene cells; endogenous in cells; host or cells: Human hepatoma Huh-7 reporter cells (firefly luciferase under receptor-specific response elements)
T1 sequence (P35869 11-848): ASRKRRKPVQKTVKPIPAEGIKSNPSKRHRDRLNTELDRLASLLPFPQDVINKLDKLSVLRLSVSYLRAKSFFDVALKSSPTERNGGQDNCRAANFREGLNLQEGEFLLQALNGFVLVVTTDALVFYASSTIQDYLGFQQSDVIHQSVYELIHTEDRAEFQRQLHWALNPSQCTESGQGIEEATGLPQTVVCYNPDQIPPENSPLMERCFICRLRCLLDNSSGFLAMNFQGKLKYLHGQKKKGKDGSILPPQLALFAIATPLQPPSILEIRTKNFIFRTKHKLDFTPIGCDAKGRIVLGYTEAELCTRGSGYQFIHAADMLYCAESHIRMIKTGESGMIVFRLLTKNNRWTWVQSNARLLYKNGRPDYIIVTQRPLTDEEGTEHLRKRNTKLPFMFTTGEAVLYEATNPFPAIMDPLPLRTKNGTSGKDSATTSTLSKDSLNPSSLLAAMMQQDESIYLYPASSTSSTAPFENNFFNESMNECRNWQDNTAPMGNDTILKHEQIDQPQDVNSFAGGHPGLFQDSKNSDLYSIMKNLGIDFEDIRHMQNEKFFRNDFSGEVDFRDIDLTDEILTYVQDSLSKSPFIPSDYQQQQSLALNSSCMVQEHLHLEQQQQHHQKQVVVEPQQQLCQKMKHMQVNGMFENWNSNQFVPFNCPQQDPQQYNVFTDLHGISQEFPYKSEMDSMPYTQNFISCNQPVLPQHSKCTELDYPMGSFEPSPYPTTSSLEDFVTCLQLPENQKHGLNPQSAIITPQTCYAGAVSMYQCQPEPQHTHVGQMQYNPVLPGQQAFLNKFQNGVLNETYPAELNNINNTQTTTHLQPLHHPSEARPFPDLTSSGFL
Description: AhR agonism assay (luciferase reporter gene cells). It counts as cell-based. As for the experimental part: Assay Materials (plasmids): expression of native (Human Hepatoma Huh-7) AhR receptor reporter gene cells, the reporter vector includes functional firefly luciferase gene linked to upstream receptor-specific genetic response elements (GRE).
The AhR agonism assay comprises the following three steps:
1. Cell implantation: a suspension of AhR receptor cells was prepared in cell recovery medium (CRM; FBS containing 10% activated carbon). Then, the prepared suspension (100 μl) was dispensed into wells of a white 96-well culture plate.
2. Right before the beginning of the experiment, Master Stocks were diluted to “2× concentration” treatment media with appropriate compound screening media (CSM: FBS containing 10% activated carbon). […]
3. Fluorescence detection and analysis: after completion of the incubation, the treatment media were discarded and 100 μL/well of luciferase detection reagent was added. The Ave RLU (average relative fluorescence intensity) of each well and the coefficient of variation for each experimental group were determined. The activity of AhR receptor with various concentrations of the test compounds was quantitatively determined using a ratio of Ave RLU^Test Cmpd of various concentrations of the test compounds in the experimental group to Ave RLU^Vehicle of the blank control group, and fold activation and EC50 were determined. […]
In general terms: In a reporter assay the amount or activity of a reporter protein is the signal.

With `COC(=O)c1ccc(C(=O)c2c[nH]c3ccccc23)s1` [Compound 11], the EC50 lay within 10 to 100 µM.

For the compound `COC(=O)c1cccc(C(=O)c2c[nH]c3ccccc23)n1` [Compound 16], the EC50 was 0.001 to 1 µM.

By EC50 is commonly meant the concentration giving half of the maximal effect. Lower therefore signals a more potent agent.
